Substitutions are numbered along the chain they refer to.
Key:
hT1R2/hT1R3 = target: T1, hT1R2/hT1R3 (Homo sapiens, UniProt Q7RTX0+Q8TE23); test: Ca2+ mobilization dose-response assay, stable cells expressing hT1R2/hT1R3 with G16gust44; format: cell-based; details: [Cl-]o=141.4 mM (high Cl- buffer); unit inferred
T1 construct: expressed in transfected cells
T1 sequence (Q8TE23 20-839): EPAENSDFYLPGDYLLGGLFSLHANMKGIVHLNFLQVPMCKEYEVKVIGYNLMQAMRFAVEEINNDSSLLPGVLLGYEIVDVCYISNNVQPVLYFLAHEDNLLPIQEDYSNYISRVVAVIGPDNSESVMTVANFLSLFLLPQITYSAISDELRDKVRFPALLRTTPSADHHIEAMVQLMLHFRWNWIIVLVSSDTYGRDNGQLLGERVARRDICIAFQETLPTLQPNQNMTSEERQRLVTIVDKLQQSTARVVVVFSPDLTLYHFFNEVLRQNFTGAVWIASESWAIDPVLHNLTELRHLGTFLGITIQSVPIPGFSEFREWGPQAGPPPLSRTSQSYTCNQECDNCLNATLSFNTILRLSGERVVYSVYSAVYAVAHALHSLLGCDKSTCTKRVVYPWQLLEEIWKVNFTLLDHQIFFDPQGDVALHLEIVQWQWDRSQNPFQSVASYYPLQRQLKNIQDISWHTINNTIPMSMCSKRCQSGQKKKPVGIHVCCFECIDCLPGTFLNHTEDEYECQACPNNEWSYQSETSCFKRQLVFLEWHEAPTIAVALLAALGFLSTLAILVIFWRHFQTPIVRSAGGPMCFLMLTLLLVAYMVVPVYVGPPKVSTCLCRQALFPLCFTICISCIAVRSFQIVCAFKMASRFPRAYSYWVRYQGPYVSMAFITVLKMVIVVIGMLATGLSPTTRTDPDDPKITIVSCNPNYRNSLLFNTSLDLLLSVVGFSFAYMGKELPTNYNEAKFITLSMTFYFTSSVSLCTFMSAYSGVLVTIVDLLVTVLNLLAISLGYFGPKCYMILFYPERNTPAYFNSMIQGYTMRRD
T1 sequence (Q7RTX0 21-852): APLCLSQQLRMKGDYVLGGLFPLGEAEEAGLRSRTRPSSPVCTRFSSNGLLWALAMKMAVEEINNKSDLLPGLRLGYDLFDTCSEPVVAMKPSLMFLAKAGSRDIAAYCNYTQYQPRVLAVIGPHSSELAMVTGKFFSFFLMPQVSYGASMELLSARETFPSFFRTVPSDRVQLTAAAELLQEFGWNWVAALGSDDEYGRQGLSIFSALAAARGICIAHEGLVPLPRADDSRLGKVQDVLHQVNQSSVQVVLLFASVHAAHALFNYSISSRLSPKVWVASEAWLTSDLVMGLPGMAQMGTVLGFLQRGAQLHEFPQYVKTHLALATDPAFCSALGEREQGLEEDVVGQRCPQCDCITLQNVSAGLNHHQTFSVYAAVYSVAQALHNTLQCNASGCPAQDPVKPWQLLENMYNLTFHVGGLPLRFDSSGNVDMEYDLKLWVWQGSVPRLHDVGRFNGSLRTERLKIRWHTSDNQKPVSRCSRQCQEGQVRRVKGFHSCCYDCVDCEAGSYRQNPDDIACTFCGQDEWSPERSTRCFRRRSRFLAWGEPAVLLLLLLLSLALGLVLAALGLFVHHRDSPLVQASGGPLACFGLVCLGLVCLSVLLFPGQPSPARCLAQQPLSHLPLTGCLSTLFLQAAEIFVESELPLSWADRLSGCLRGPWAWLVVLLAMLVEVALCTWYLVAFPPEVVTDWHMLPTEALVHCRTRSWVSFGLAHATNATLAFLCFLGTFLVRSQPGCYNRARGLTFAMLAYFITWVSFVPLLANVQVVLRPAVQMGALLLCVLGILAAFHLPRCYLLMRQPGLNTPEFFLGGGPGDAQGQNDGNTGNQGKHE

hT1R2/hT1R3 T102E = target: T2, hT1R2/hT1R3 T102E (Homo sapiens, UniProt Q7RTX0+Q8TE23, T102E); test: Ca2+ mobilization dose-response assay, site X mutant hT1R2/hT1R3 T102E; details: EC50, [Cl-]o=141.4 mM (high Cl- buffer); unit inferred
T2 sequence (Q8TE23 20-839): T1 sequence (Q8TE23 20-839)
T2 sequence (Q7RTX0 21-852 T102E): T1 sequence (Q7RTX0 21-852) with T82E

mfT1R2a/mfT1R3 = target: T3, mfT1R2a/mfT1R3 (Oryzias latipes, UniProt Q2MHK2+Q2MHK5); test: Ca2+ mobilization dose-response assay, stable cells expressing mfT1R2a/mfT1R3 with G16gust44; details: EC50, [Cl-]o=141.4 mM (high Cl- buffer); unit inferred
T3 sequence (Q2MHK5 20-819): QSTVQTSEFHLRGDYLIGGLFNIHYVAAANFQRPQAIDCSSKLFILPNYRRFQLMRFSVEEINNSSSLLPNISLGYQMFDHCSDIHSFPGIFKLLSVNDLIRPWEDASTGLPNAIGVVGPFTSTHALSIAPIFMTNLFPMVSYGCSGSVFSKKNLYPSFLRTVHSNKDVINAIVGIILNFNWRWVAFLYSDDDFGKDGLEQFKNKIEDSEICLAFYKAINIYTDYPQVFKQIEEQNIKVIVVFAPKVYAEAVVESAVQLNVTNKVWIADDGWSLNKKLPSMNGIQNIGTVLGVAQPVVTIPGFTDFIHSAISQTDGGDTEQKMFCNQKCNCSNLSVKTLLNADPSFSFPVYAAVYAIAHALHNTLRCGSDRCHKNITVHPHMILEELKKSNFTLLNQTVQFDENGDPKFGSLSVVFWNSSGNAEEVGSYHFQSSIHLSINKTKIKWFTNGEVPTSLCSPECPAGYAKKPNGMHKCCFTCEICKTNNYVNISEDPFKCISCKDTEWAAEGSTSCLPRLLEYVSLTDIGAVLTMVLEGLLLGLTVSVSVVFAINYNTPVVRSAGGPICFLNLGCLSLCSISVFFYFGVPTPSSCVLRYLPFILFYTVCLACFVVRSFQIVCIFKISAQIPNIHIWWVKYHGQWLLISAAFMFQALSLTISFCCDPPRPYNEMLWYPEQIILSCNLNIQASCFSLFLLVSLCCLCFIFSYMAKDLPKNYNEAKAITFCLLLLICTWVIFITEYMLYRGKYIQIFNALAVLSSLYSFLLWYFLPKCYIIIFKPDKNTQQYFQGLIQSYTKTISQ
T3 sequence (Q2MHK2 20-853): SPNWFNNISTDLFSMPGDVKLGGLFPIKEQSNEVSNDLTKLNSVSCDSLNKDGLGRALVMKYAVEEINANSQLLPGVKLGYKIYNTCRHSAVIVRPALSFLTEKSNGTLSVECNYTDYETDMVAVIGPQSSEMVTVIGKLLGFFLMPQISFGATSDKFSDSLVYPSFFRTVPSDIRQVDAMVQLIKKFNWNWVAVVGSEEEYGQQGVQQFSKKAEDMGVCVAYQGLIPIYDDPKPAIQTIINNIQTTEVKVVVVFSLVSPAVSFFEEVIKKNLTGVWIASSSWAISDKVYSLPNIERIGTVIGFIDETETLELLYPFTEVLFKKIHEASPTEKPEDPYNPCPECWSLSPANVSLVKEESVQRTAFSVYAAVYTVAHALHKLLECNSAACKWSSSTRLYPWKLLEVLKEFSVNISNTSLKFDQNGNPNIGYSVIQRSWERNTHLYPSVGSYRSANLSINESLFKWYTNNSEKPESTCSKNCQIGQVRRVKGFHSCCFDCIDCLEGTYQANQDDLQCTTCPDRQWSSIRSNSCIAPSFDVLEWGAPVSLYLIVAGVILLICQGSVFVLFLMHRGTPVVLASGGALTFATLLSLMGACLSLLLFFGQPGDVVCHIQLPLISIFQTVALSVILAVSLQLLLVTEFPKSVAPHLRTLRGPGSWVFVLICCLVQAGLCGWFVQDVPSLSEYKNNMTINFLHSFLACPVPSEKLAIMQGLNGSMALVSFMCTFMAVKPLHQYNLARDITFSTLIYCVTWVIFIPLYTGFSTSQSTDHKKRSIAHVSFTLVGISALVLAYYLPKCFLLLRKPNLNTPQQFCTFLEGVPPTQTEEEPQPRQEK

zfT1R2a/zfT1R3 = target: T4, zfT1R2a/zfT1R3 (Danio rerio, UniProt A0A8M1N8F9+Q2MHK9); test: Ca2+ mobilization dose-response assay, stable cells expressing zfT1R2a/zfT1R3 with G16gust44; details: EC50, [Cl-]o=141.4 mM (high Cl- buffer); unit inferred
T4 sequence (A0A8M1N8F9 26-825): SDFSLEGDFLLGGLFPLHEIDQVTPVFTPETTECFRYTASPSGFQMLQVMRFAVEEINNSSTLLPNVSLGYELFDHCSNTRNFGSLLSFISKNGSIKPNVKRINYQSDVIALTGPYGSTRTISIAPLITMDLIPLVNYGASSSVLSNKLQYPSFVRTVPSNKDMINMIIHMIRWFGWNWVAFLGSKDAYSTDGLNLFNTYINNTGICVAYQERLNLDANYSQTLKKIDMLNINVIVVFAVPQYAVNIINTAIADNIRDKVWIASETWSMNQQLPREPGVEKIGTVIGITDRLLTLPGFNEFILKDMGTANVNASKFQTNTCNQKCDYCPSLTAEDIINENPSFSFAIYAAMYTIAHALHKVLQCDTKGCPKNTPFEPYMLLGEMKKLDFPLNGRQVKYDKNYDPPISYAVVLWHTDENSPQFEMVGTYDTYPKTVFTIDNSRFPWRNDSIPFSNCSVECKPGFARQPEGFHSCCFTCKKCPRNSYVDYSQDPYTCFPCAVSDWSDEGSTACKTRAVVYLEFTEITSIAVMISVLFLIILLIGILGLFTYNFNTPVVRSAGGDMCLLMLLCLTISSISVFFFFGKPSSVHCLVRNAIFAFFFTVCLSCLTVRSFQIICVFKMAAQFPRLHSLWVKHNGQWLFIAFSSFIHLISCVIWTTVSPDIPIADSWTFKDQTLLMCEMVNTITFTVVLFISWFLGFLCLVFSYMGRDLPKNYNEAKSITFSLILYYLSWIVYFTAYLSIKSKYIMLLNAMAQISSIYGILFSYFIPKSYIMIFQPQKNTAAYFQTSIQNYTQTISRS
T4 sequence (Q2MHK9 25-850): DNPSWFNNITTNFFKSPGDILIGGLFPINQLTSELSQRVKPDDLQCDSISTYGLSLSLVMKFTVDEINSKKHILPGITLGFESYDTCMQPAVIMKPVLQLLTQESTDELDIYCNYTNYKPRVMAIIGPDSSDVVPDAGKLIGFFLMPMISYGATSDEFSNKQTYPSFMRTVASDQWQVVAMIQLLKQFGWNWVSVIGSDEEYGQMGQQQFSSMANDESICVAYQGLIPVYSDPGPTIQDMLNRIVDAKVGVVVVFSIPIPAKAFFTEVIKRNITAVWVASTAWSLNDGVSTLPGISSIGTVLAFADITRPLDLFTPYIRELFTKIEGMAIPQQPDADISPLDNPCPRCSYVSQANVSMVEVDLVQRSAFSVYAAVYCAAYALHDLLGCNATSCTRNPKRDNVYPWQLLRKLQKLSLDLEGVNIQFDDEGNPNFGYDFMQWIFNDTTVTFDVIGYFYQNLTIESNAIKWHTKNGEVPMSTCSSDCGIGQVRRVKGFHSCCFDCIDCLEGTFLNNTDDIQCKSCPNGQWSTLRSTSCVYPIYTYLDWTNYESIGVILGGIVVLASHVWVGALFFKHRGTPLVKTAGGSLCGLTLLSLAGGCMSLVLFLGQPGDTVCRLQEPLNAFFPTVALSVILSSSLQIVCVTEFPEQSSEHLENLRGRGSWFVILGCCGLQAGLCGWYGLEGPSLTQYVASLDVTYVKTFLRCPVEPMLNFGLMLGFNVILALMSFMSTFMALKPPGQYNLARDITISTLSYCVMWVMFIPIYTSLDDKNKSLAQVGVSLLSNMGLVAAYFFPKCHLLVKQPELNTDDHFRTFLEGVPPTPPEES

## OC[C@H]1O[C@H](O[C@]2(CCl)O[C@H](CCl)[C@@H](O)[C@@H]2O)[C@H](O)[C@@H](O)[C@H]1Cl [sucralose, Sucralose]
hT1R2/hT1R3
  EC50: 77.6 µM
hT1R2/hT1R3 T102E
  EC50: 224 µM

## NC(=O)CC[C@H](N)C(=O)O [L-Gln, L-glutamine]
mfT1R2a/mfT1R3
  EC50: 62.5 µM

## C[C@H](N)C(=O)O [L-Ala, L-alanine]
zfT1R2a/zfT1R3
  EC50: 137 µM

— paper PMC10539361, “Allosteric modulation of the fish taste receptor type 1 (T1R) family by the extracellular chloride ion” (Scientific Reports, 2023)
